One data set has as its target T1, CYP1A1 (Homo sapiens, UniProt P04798).
T1 sequence (P04798 1-512): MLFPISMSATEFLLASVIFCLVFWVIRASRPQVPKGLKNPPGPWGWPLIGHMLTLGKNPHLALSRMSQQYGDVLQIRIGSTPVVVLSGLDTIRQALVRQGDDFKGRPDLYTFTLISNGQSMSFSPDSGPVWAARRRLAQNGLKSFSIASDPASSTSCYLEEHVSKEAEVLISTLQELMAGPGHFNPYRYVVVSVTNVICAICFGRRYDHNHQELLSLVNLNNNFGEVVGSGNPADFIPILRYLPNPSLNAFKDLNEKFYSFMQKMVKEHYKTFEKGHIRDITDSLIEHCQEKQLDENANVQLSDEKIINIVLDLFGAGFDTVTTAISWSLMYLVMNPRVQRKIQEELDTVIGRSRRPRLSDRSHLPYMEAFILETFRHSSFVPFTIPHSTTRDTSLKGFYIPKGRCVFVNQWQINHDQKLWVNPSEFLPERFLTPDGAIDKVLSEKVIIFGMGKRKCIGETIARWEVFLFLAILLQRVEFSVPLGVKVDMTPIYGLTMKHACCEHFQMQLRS
As to the kind of experiment: Michaelis-Menten kinetics of TKI metabolite production, cDNA expressed CYP1A1 microsomes. Conditions: Vmax/Km for production of the labelled metabolite, as fold difference of the intrinsic clearance of CYP3A4.

Sequences of proteins named here, by UniProt entry; tags and fusion partners are left off.
UniProt P08684, whole entry: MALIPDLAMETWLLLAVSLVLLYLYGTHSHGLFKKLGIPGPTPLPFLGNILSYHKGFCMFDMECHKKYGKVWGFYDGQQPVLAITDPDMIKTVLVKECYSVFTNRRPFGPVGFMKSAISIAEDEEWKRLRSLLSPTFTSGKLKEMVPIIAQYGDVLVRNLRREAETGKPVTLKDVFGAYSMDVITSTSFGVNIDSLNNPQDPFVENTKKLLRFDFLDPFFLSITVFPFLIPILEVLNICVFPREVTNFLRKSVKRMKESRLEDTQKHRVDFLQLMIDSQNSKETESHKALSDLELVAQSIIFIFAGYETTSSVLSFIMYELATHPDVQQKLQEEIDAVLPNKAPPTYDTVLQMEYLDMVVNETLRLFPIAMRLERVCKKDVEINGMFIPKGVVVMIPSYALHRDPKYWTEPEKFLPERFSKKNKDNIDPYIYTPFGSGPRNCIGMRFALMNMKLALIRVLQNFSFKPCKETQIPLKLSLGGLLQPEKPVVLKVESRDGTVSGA

For a further data set, the target named is T2, CYP2J2 (Homo sapiens, UniProt P51589).
T2 sequence (P51589 1-502): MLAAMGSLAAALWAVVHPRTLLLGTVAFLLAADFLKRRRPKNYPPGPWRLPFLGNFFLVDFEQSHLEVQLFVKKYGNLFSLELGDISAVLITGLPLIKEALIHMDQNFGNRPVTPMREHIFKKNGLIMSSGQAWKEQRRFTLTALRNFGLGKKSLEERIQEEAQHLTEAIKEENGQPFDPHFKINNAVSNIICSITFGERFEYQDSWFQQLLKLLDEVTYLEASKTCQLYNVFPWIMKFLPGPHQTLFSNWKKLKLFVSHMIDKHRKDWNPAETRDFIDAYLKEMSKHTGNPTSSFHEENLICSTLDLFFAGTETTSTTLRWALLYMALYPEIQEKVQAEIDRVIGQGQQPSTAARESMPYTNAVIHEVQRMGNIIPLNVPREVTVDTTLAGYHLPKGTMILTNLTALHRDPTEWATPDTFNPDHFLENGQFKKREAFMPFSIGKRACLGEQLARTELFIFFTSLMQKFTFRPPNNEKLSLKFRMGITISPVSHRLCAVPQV
Kind of data set: Michaelis-Menten kinetics of TKI metabolite production, cDNA expressed CYP2J2 microsomes. Conditions: Vmax/Km for production of the labelled metabolite, as fold difference of the intrinsic clearance of CYP3A4.

The target in the next data set is CYP3A4 (Homo sapiens, UniProt P08684). As to the kind of experiment: Michaelis-Menten kinetics of TKI metabolite production, cDNA expressed CYP3A4 microsomes. Conditions: CYP3A4 (reference, set to 1.0); Vmax/Km for production of the labelled metabolite.

The record followed here is paper PMC4018390, “Important Role of CYP2J2 in Protein Kinase Inhibitor Degradation: A Possible Role in Intratumor Drug Disposition and Resistance” (PLoS ONE, 2014).

For the substance N-oxide-nilotinib [NO-nilotinib #1], the “Relative Intrinsic Clearance” value on CYP1A1 is listed as 0.5 fold diff; on CYP2J2, 1.3 fold diff; at CYP3A4 it was 1.0 fold diff.
